# Measured values reported in publication PMC6203815.
# Biological target: Pfs48/45 6C domain (NF54) (Plasmodium falciparum)
substance,measurement,value
"mAb TB31F (HC2-LC1), humanized IgG1 (antibody)",other,1 µg/mL
